# From US10039753B2, “Imidazo[4,5-c]quinoline and imidazo[4,5-c][1,5]naphthyridine derivatives as LRRK2 inhibitors” (Pfizer Inc., priority 2015, dated 2018)
# The chains behind the UniProt entries cited, without tags or fusion partners. Residues count along the entry.
# UniProt Q5S007, 970-2527 G2019S limits assumed: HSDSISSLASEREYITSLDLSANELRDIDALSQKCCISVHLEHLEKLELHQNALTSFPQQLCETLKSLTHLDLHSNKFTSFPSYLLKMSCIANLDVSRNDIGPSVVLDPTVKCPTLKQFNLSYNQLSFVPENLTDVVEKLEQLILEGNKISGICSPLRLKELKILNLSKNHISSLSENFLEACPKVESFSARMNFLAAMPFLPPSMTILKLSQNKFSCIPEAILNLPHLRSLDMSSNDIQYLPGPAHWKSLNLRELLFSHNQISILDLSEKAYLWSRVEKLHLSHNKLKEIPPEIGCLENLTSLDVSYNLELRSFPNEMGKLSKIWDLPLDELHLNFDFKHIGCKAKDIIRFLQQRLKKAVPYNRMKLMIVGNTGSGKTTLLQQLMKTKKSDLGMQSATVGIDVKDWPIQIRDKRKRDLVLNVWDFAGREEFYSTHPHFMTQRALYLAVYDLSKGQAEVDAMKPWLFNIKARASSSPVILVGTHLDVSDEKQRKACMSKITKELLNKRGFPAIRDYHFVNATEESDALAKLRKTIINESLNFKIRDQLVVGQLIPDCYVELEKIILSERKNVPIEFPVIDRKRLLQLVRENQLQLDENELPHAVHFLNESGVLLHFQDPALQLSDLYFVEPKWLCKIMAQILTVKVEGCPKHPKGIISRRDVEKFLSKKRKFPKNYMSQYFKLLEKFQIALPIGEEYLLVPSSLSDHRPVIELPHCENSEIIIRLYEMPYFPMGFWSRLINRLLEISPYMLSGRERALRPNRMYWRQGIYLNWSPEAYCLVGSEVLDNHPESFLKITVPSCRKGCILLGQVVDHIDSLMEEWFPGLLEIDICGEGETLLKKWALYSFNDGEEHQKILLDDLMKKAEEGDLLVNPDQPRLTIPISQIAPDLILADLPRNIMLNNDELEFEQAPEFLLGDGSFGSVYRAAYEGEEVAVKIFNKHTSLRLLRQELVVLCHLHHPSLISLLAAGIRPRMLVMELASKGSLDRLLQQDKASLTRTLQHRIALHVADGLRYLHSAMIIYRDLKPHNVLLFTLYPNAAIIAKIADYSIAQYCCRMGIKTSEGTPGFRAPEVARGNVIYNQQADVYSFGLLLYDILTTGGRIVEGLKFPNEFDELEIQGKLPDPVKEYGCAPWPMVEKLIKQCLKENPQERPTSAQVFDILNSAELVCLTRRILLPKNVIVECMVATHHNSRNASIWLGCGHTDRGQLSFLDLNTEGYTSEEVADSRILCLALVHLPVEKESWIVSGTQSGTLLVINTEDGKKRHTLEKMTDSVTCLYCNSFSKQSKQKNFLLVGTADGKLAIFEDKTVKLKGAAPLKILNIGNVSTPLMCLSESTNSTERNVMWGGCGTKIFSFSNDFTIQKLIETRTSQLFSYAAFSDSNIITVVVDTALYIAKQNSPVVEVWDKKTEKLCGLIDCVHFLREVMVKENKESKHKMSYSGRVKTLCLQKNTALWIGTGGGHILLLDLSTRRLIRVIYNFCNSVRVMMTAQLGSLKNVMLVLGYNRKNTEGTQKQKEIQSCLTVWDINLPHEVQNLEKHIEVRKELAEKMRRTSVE
# UniProt Q5S007, 970-2527 limits assumed: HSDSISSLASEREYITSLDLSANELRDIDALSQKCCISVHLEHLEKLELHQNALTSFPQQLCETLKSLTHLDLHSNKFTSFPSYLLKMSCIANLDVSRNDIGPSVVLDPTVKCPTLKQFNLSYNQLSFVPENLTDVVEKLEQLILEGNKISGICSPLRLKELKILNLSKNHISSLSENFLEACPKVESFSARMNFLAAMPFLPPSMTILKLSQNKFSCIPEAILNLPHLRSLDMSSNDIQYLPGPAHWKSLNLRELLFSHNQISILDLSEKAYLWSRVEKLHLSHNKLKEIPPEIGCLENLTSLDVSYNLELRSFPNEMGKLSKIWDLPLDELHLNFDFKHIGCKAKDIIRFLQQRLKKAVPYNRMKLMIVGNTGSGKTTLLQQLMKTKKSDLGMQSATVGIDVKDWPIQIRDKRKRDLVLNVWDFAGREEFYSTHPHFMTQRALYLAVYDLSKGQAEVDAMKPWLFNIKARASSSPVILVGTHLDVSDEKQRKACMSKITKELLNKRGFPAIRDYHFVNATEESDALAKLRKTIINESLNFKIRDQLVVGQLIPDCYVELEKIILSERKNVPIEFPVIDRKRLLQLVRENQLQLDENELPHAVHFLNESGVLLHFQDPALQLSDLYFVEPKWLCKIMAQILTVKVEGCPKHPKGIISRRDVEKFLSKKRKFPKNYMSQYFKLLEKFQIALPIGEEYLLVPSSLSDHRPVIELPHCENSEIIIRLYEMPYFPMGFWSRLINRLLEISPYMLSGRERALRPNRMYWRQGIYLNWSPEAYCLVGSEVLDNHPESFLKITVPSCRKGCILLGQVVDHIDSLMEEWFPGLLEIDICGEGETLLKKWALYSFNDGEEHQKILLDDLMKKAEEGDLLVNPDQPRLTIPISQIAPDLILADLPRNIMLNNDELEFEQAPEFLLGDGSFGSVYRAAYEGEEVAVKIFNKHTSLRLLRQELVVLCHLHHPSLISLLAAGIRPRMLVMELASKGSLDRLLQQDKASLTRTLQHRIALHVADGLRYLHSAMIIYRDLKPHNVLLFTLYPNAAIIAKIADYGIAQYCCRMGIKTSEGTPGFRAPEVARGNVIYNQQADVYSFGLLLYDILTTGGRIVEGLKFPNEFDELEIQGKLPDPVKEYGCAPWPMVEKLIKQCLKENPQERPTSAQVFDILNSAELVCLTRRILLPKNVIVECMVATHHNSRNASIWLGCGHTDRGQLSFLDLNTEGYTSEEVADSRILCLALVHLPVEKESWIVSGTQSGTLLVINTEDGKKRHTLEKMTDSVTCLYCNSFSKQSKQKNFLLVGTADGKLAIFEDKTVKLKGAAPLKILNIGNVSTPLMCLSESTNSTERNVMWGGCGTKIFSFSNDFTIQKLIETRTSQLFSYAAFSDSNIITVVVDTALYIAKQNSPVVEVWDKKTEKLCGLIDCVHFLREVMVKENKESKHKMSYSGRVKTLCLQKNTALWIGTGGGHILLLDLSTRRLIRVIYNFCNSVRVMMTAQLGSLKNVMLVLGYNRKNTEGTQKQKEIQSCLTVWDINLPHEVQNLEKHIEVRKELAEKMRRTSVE
# Legend:
# Assay type in all cases: biochemical
# mutant G2019S LRRK2 = mutant G2019S LRRK2 (Homo sapiens, UniProt Q5S007, G2019S); experiment: LRRK2 Assay, Format 2 (Lantha Screen), G2019S mutant; parameters: purchased Invitrogen PV4881; details: geometric mean of 2-4 determinations unless otherwise indicated (a: >=5; b: single determination)
# Method: (§1) LRRK2 kinase activity was measured using Lantha Screen technology from Invitrogen. GST-tagged truncated LRRK2 from Invitrogen (Cat # PV4874) was incubated with a fluorescein-labeled peptide substrate based upon ezrin/radixin/moesin (ERM), also known as LRRKtide (Invitrogen cat # PR8976A), in the presence of a dose response of compound. Upon completion, the assay was stopped and detected with a terbium labeled anti-phospho-ERM antibody (Invitrogen, cat # PR8975A). […] Using Echo acoustic dispensing, 60 nL of compound was transferred to a low volume Corning 384-well assay plate. 3 μL of a working solution of substrate (200 nM LRRKtide, […]) prepared in assay buffer (50 mM HEPES, pH 7.5, 3 mM MgCl2, with 2 mM DTT and 0.01% Brij35 added fresh) was added to the 60 nL compound assay plate. The kinase reaction was started with […] of a working solution of LRRK2 enzyme at a concentration of […]. The final reaction concentrations were 100 nM LRRKtide, […], […] LRRK2 enzyme and a compound dose response with a top dose of 3 mM. The reaction was allowed to progress at room temperature for 30 minutes and then stopped with the addition of […] of detection buffer (20 mM Tris pH 7.6, 0.01% NP-40, 6 mM EDTA with 2 nM terbium labeled anti-phospho-ERM). After an incubation of 1 hour at room temperature, the plate was read on an Envision with an excitation wavelength of 340 nm and a reading emission at both 520 nm and 495 nm. The ratio of the 520 nm and 495 nm emission was used to analyze the data. Inhibition of mutant G2019S LRRK2 (Invitrogen cat # PV4881) was measured in the exact same method. All final concentrations of substrate ATP and enzyme were the same.
# [1] = molecular target: T1, GST-tagged truncated LRRK2 (Homo sapiens, UniProt Q5S007); experiment: LRRK2 Assay, Format 2 (Lantha Screen), WT; details: geometric mean of 2-4 determinations unless otherwise indicated (a: >=5; b: single determination)
# T1 construct: GST-tagged truncated LRRK2 from Invitrogen (Cat # PV4874); GST; purchased Invitrogen PV4874
# Method: as §1
# [2] = system: kinase selectivity mini-panel; experiment: Kinase selectivity (mini-panel), further assay run, Table 5A; details: 1 mM ATP, 1 μM drug concentration
# Method: The compounds were run using a commercially available kinase selectivity assay which is available from CarnaBio USA, Inc. 209 West Central St., Suite 307, Natick, Mass. 01760 USA. The compounds of Examples 3, 4, 5 and 22 were run in the assay at a concentration of 1 μM using an ATP concentration of 1 mM. Table 5A below provides kinase selectivity from a further assay run for the compounds of Examples 4, 11, 5, 104, 102 and 116.
smiles,measurement,setting,value
"Cc1nc(Cc2nc3cnc4ccc(C(F)(F)F)cc4c3n2[C@@H]2CCO[C@H](C)C2)no1 [Example 114, 2-[(5-Methyl-1,2,4-oxadiazol-3-yl)methyl]-1-[(2R,4R)-2-methyltetrahydro-2H-pyran-4-yl]-8-(trifluoromethyl)-1H-imidazo[4,5-c]quinoline]",IC50,mutant G2019S LRRK2,2.15 nM
same,IC50,[1],3.29 nM
"Cc1cn(Cc2nc3cnc4ccc(C#N)cc4c3n2[C@@H]2CC[C@H](F)C2)nn1 (single isomer, unassigned; ent-2) [Example 101, 1-(cis-3-Fluorocyclopentyl)-2-[(4-methyl-1H-1,2,3-triazol-1-yl)methyl]-1H-imidazo[4,5-c]quinoline-8-carbonitrile, ENT-2]",IC50,mutant G2019S LRRK2,8.61 nM
same,IC50,[1],4.94 nM
"C[C@@H]1C[C@H](n2c(Cc3cnc(C(F)(F)F)cn3)nc3cnc4ccc(Cl)cc4c32)CCO1 [Example 105, 8-Chloro-1-[(2R,4R)-2-methyltetrahydro-2H-pyran-4-yl]-2-{[5-(trifluoromethyl)pyrazin-2-yl]methyl}-1H-imidazo[4,5-c]quinoline]",IC50,mutant G2019S LRRK2,10.8 nM
same,IC50,[1],10.2 nM
"Cc1cnc(Cc2nc3cnc4ccc(C#N)cc4c3n2[C@@H]2CC[C@H](F)C2)cn1 (single isomer, unassigned; ent-1) [Example 109, 1-(cis-3-Fluorocyclopentyl)-2-[(5-methylpyrazin-2-yl)methyl]-1H-imidazo[4,5-c]quinoline-8-carbonitrile, ENT-1]",IC50,mutant G2019S LRRK2,7.11 nM
same,IC50,[1],5.21 nM
"Cc1cc(Cc2nc3cnc4ccc(Cl)cc4c3n2[C@@H]2CCO[C@H](C)C2)ncn1 [Example 102, 8-Chloro-2-[(6-methylpyrimidin-4-yl)methyl]-1-[(2R,4R)-2-methyltetrahydro-2H-pyran-4-yl]-1H-imidazo[4,5-c]quinoline]",IC50,mutant G2019S LRRK2,7.05 nM
same,percent inhibition of ABL,[2]; kinase ABL,1.95%
same,percent inhibition of AKT,[2]; kinase AKT,4.16%
same,percent inhibition of AURA,[2]; kinase AURA,11.07%
same,percent inhibition of BTK,[2]; kinase BTK,−2.03%
same,percent inhibition of CDK2_CyclinA,[2]; kinase CDK2_CyclinA,7.12%
same,percent inhibition of CHK1,[2]; kinase CHK1,7.04%
same,percent inhibition of CHK2,[2]; kinase CHK2,0.5%
same,percent inhibition of CKIIa′,[2]; kinase CKIIa′,2.15%
same,percent inhibition of CKIa,[2]; kinase CKIa,4.89%
same,percent inhibition of CaMKIIa,[2]; kinase CaMKIIa,7.95%
same,percent inhibition of EGFR,[2]; kinase EGFR,0.11%
same,percent inhibition of ERK2,[2]; kinase ERK2,3.64%
same,percent inhibition of EphA2,[2]; kinase EphA2,2.2%
same,percent inhibition of FGFR1,[2]; kinase FGFR1,34.71%
same,percent inhibition of GSK3b,[2]; kinase GSK3b,2.8%
same,percent inhibition of HGFR,[2]; kinase HGFR,3.61%
same,percent inhibition of IRAK4,[2]; kinase IRAK4,8.34%
same,percent inhibition of IRK,[2]; kinase IRK,2.41%
same,percent inhibition of JAK3,[2]; kinase JAK3,50.75%
same,percent inhibition of KDR (VEGF),[2]; kinase KDR (VEGF),51.75%
same,percent inhibition of LCK,[2]; kinase LCK,18.64%
same,percent inhibition of MARK1,[2]; kinase MARK1,6.6%
same,percent inhibition of MK2,[2]; kinase MK2,1.54%
same,percent inhibition of MLCK_sk,[2]; kinase MLCK_sk,0.92%
same,percent inhibition of MST2,[2]; kinase MST2,51.42%
same,percent inhibition of MST4,[2]; kinase MST4,4.8%
same,percent inhibition of PAK4,[2]; kinase PAK4,4.83%
same,percent inhibition of PDK1,[2]; kinase PDK1,8.36%
same,percent inhibition of PIM2,[2]; kinase PIM2,5.55%
same,percent inhibition of PKACa,[2]; kinase PKACa,0.21%
same,percent inhibition of PRKCB2,[2]; kinase PRKCB2,10.52%
same,percent inhibition of ROCKI,[2]; kinase ROCKI,−0.87%
same,percent inhibition of SGK,[2]; kinase SGK,7.15%
same,percent inhibition of SRC,[2]; kinase SRC,5.87%
same,percent inhibition of TAO2,[2]; kinase TAO2,2.75%
same,percent inhibition of TIE2,[2]; kinase TIE2,2.01%
same,percent inhibition of TRKA,[2]; kinase TRKA,58.72%
same,percent inhibition of ZC1 (HGK),[2]; kinase ZC1 (HGK),3.72%
same,percent inhibition of p38,[2]; kinase p38,3.32%
same,IC50,[1],6 nM
"COc1cnn(Cc2nc3cnc4ccc(Cl)cc4c3n2[C@@H]2CCO[C@H](C)C2)c1 [Example 110, 8-chloro-2-[(4-methoxy-1H-pyrazol-1-yl)methyl]-1-[(2R,4R)-2-methyltetrahydro-2H-pyran-4-yl]-1H-imidazo[4,5-c]quinoline]",IC50,mutant G2019S LRRK2,6.48 nM
same,IC50,[1],7.12 nM
"Cc1cc(Cc2nc3cnc4ccc(Cl)cc4c3n2[C@@H]2CCO[C@H](C)C2)on1 [Example 115, 8-Chloro-2-[(3-methyl-1,2-oxazol-5-yl)methyl]-1-[(2R,4R)-2-methyltetrahydro-2H-pyran-4-yl]-1H-imidazo[4,5-c]quinoline]",IC50,mutant G2019S LRRK2,6 nM
same,IC50,[1],4.62 nM
"Cc1cnc(Cc2nc3cnc4ccc(C#N)cc4c3n2[C@@H]2CCO[C@H](C)C2)cn1 [Example 108, 2-[(5-Methylpyrazin-2-yl)methyl]-1-[(2R,4R)-2-methyltetrahydro-2H-pyran-4-yl]-1H-imidazo[4,5-c]quinoline-8-carbonitrile]",IC50,mutant G2019S LRRK2,8.41 nM
same,IC50,[1],9.54 nM
"Cc1nc(Cc2nc3cnc4ccc(C#N)cc4c3n2[C@@H]2CCN(C)C2)no1 [Example 112, 2-[(5-Methyl-1,2,4-oxadiazol-3-yl)methyl]-1-[(3R)-1-methylpyrrolidin-3-yl]-1H-imidazo[4,5-c]quinoline-8-carbonitrile]",IC50,mutant G2019S LRRK2,14.8 nM
same,IC50,[1],9.19 nM
"CN1CC[C@@H](n2c(Cc3cnccn3)nc3cnc4ccc(C#N)cc4c32)C1 [Example 113, 1-[(3R)-1-Methylpyrrolidin-3-yl]-2-(pyrazin-2-ylmethyl)-1H-imidazo[4,5-c]quinoline-8-carbonitrile]",IC50,mutant G2019S LRRK2,9.73 nM
same,IC50,[1],6.51 nM
"Cc1cc(Cc2nc3cnc4ccc(C#N)cc4c3n2C2CCCCC2(F)F)no1 (single isomer, unassigned; ent-1) [Example 111, 1-(2,2-Difluorocyclohexyl)-2-[(5-methyl-1,2-oxazol-3-yl)methyl]-1H-imidazo[4,5-c]quinoline-8-carbonitrile, ENT-1]",IC50,mutant G2019S LRRK2,12.2 nM
same,IC50,[1],9.41 nM
